The test has as its target T1, α2δ subunit derived from porcine brain tissue (Sus scrofa, UniProt A0A287BIN3).
T1 construct: the α2δ subunit derived from porcine brain tissue was used; from tissue; host or cells: porcine brain tissue
Put plainly: radioligand binding assay using [3H]gabapentin and the α2δ subunit.

Amino acid sequences for entries named in this document (tags omitted). A change or cut given only in a name is not applied to a line headed by its entry. Residues count along the entry.
UniProt A0A287BIN3, 25-1109: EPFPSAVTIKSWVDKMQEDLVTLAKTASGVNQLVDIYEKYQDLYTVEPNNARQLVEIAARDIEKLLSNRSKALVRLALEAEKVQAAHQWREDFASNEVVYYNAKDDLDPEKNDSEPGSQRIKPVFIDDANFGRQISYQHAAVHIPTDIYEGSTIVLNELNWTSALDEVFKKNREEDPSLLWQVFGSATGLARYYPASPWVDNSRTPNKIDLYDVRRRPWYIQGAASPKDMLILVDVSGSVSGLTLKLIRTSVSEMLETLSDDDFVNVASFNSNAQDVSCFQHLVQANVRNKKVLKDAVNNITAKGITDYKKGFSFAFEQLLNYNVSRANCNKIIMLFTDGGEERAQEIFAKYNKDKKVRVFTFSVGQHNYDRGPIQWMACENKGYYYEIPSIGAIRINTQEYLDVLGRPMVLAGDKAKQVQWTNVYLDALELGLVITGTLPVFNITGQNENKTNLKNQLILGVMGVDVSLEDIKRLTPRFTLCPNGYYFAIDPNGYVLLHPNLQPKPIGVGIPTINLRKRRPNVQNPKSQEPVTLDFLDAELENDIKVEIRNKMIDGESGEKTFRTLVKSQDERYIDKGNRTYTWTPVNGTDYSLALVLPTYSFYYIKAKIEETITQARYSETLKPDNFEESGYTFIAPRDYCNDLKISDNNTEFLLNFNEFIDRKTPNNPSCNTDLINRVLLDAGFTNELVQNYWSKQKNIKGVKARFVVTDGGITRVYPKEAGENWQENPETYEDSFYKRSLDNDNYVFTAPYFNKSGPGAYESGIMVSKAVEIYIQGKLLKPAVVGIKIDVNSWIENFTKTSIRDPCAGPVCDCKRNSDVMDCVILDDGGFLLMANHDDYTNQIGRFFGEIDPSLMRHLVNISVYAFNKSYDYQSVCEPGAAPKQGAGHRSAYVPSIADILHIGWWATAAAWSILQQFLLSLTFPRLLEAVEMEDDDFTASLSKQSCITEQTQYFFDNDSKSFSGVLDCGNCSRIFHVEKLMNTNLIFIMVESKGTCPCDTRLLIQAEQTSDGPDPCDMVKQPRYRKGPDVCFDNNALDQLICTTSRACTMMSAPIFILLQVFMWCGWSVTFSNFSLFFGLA

Structures are written as SMILES.

This is an account of results in patent publication US6489352B2, “Conformationally constrained compounds as pharmaceutical agents” (Warner-Lambert Company, priority 1998, dated 2002).

The term IC50 denotes the concentration that gives 50% inhibition. Low readings indicate higher potency, high ones lower potency.

As for `NCC1(CC(=O)O)CCCCC1` [Gabapentin, 1-(aminomethyl)-cyclohexaneacetic acid, reference compound], the IC50 fell in the range of 100 to 120 nM.
